Legend:
SMO-W281C = SMO-W281C (Homo sapiens, UniProt Q99835, W281C); details: 5 nM [3H]-vismodegib, cell surface levels similar to SMO-WT, FIG. 12B
[1] = test system: PPT CGNPs infected with SMO-W281C; experiment: methyl-[3H]-thymidine incorporation (proliferation) of virally transduced PPT CGNPs after removal of SHH; type: cell-based, mice; details: 5 μM vismodegib
Source text: It has previously been noted that Hh-driven tumor cells rapidly lose their Hh pathway dependence during culturing (Sasai et al., 2006). However, CGNPs proliferate in vivo in a Hh dependent manner and maintain their Hh pathway dependence in culture for a finite period (Wechsler-Reya and Scott, 1999). CGNPs isolated from Ptch1loxp/loxp Tp53loxp/loxp Rosa26LSL-tdTomato (PPT) pups were infected with lentiviral constructs expressing a SMO variant together with an enhanced green fluorescent protein (eGFP)-Cre fusion protein (FIG. 12C). The Cre recombinase induces loss of Ptch1 and thus ensures that only transduced CGNPs can proliferate in the absence of exogenous Sonic hedgehog ligand (SHH; FIG. 11D). […] Proliferation by methyl-[3H]-thymidine incorporation was monitored, while Cre-dependent tandem dimer (td) Tomato expression enabled visualization and quantification of infected cells. This system also enabled better model patient genetics because most of the SMO mutations were identified in tumors that harbored TP53 mutations and were driven by loss of PTCH1. […] It was confirmed that CGNPs were infected at similar frequencies by fluorescence-activated cell sorting (FACS) analysis for Cre-dependent tdTomato reporter expression, and that the SMO variants were expressed at equivalent levels by quantitative reverse transcription (qRT) PCR. […]

Protein sequences, listed by entry. Tags and fused reporters are not part of them. Residues count along the entry.
UniProt Q99835, 28-787 W281C: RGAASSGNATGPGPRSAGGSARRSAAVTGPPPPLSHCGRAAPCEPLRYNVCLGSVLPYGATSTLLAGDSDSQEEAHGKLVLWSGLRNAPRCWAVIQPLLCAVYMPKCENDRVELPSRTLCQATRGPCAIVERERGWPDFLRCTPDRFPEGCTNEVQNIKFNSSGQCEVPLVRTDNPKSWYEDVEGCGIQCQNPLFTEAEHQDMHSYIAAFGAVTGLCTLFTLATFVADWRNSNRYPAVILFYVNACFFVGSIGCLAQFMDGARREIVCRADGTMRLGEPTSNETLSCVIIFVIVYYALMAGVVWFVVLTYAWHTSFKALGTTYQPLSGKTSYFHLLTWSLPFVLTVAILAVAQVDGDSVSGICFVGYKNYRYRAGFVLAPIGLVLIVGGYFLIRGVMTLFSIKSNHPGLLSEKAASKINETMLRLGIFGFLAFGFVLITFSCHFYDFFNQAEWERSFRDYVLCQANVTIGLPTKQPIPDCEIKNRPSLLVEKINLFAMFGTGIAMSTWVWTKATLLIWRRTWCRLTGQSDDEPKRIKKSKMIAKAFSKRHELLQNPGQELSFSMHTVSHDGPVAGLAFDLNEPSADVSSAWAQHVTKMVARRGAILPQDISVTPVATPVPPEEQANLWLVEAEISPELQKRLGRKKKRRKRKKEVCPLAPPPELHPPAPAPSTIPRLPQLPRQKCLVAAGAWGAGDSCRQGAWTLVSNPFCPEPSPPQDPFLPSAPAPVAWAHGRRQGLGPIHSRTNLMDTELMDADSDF

SMILES: CS(=O)(=O)c1ccc(C(=O)Nc2ccc(Cl)c(-c3ccccn3)c2)c(Cl)c1 [vismodegib]
- binding of [3H]-labeled vismodegib (SMO-W281C): impaired
- proliferation in the presence of vismodegib [1]: continued to proliferate at near untreated levels

Reference: patent US10330683B2, “Mutant smoothened and methods of using the same” (Genentech, Inc., priority 2015, dated 2019)
